Experimental data published in patent publication US9549967B2, “Regulation of sodium channels by PLUNC proteins” (The University of North Carolina at Chapel Hill, priority 2009, dated 2017).

Target: aprotinin (UniProt P00974)

Substance: trypsin
- cleavage of fluorogenic substrate BGAR-MCA by trypsin: 2 U/ml aprotinin which inhibited trypsin activity by ˜100%
